Measured values reported in PMC12102759 (Protein Science : A Publication of the Protein Society, 2025).

By UniProt entry, the sequences of proteins in these tests, tags left out. Residues count along the entry.
UniProt Q9Y490, 309-401: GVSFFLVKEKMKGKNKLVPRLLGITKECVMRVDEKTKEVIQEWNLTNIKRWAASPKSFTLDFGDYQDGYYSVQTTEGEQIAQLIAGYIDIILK

Molecular target: TLN1 PTB (Homo sapiens, UniProt Q9Y490)
Assay type: binding

Substance | DMS-derived PSSM value of the single-substitution variant | DMS-derived PSSM value, averaged over the two overlapping peptides
TDERSWVYSPLHYSAQ Y8P (TDERSWVPSPLHYSAQ) | 0.006785 | 
TDERSWVYSPLHYS(averaged) S9L (TDERSWVYLPLHYS) |  | 0
FPTDERSWVYSPLHYS Y10I (FPTDERSWVISPLHYS) | 0.04645 | 
FPTDERSWVYSPLHYS S7L (FPTDERLWVYSPLHYS) | 0.0338 | 
TDERSWVYSPLHYS(averaged) S9S |  | 0.4884
TDERSWVYSPLHYS(averaged) R4G (TDEGSWVYSPLHYS) |  | 0.02892
TDERSWVYSPLHYS(averaged) T1G (GDERSWVYSPLHYS) |  | 0.04566
FPTDERSWVYSPLHYS Y15V (FPTDERSWVYSPLHVS) | 0.02215 | 
TDERSWVYSPLHYSAQ S5T (TDERTWVYSPLHYSAQ) | 0.2046 | 
FPTDERSWVYSPLHYS S11L (FPTDERSWVYLPLHYS) | 0 | 
TDERSWVYSPLHYSAQ H12P (TDERSWVYSPLPYSAQ) | 0.02759 | 
FPTDERSWVYSPLHYS S7E (FPTDEREWVYSPLHYS) | 0.01776 | 
TDERSWVYSPLHYSAQ Y13A (TDERSWVYSPLHASAQ) | 0.0133 | 
FPTDERSWVYSPLHYS W8H (FPTDERSHVYSPLHYS) | 0 | 
FPTDERSWVYSPLHYS V9M (FPTDERSWMYSPLHYS) | 0.02699 | 
TDERSWVYSPLHYS(averaged) H12N (TDERSWVYSPLNYS) |  | 0.0707
TDERSWVYSPLHYS(averaged) V7I (TDERSWIYSPLHYS) |  | 0.004511
TDERSWVYSPLHYSAQ H12F (TDERSWVYSPLFYSAQ) | 0.04135 | 
FPTDERSWVYSPLHYS S7P (FPTDERPWVYSPLHYS) | 0 | 
TDERSWVYSPLHYS(averaged) R4R |  | 0.06987
FPTDERSWVYSPLHYS E5T (FPTDTRSWVYSPLHYS) | 0.04923 | 
FPTDERSWVYSPLHYS L13R (FPTDERSWVYSPRHYS) | 0.004675 | 

Substance | DMS-derived PSSM value of the single-substitution variant | DMS-derived PSSM value, averaged over the two overlapping peptides
FPTDERSWVYSPLHYS W8Q (FPTDERSQVYSPLHYS) | 0.0707 | 
FPTDERSWVYSPLHYS S11I (FPTDERSWVYIPLHYS) | 0 | 
TDERSWVYSPLHYSAQ L11I (TDERSWVYSPIHYSAQ) | 0.1158 | 
FPTDERSWVYSPLHYS S7M (FPTDERMWVYSPLHYS) | 0.1439 | 
FPTDERSWVYSPLHYS H14N (FPTDERSWVYSPLNYS) | 0.005491 | 
TDERSWVYSPLHYSAQ S14M (TDERSWVYSPLHYMAQ) | 0.0475 | 
TDERSWVYSPLHYS(averaged) D2Q (TQERSWVYSPLHYS) |  | 0.04535
TDERSWVYSPLHYS(averaged) S14D (TDERSWVYSPLHYD) |  | 0.05615
TDERSWVYSPLHYSAQ D2N (TNERSWVYSPLHYSAQ) | 0.02272 | 
TDERSWVYSPLHYSAQ V7L (TDERSWLYSPLHYSAQ) | 0.04475 | 
TDERSWVYSPLHYSAQ V7W (TDERSWWYSPLHYSAQ) | 0.02806 | 
FPTDERSWVYSPLHYS S11S | 0.3508 | 
TDERSWVYSPLHYS(averaged) Y8V (TDERSWVVSPLHYS) |  | 0.08002
TDERSWVYSPLHYS(averaged) L11H (TDERSWVYSPHHYS) |  | 0.01184
FPTDERSWVYSPLHYS L13E (FPTDERSWVYSPEHYS) | 0 | 
FPTDERSWVYSPLHYS S16H (FPTDERSWVYSPLHYH) | 0.05241 | 
TDERSWVYSPLHYSAQ S5H (TDERHWVYSPLHYSAQ) | 0.02304 | 
TDERSWVYSPLHYSAQ D2A (TAERSWVYSPLHYSAQ) | 0.3332 | 
TDERSWVYSPLHYSAQ L11S (TDERSWVYSPSHYSAQ) | 0.001877 | 
TDERSWVYSPLHYSAQ Y13N (TDERSWVYSPLHNSAQ) | 0.07672 | 
TDERSWVYSPLHYS(averaged) S14N (TDERSWVYSPLHYN) |  | 0.02528
FPTDERSWVYSPLHYS S7S | 0.03397 | 

Substance | DMS-derived PSSM value of the single-substitution variant | DMS-derived PSSM value, averaged over the two overlapping peptides
TDERSWVYSPLHYS(averaged) V7Y (TDERSWYYSPLHYS) |  | 0.04319
TDERSWVYSPLHYSAQ W6D (TDERSDVYSPLHYSAQ) | 0 | 
FPTDERSWVYSPLHYS S7K (FPTDERKWVYSPLHYS) | 0.05583 | 
FPTDERSWVYSPLHYS Y10A (FPTDERSWVASPLHYS) | 0.0258 | 
FPTDERSWVYSPLHYS P12V (FPTDERSWVYSVLHYS) | 0.0194 | 
FPTDERSWVYSPLHYS S11Y (FPTDERSWVYYPLHYS) | 0.01898 | 
TDERSWVYSPLHYSAQ L11L | 0.4566 | 
FPTDERSWVYSPLHYS R6K (FPTDEKSWVYSPLHYS) | 0.01009 | 
FPTDERSWVYSPLHYS V9D (FPTDERSWDYSPLHYS) | 0.02997 | 
FPTDERSWVYSPLHYS L13K (FPTDERSWVYSPKHYS) | 0.002338 | 
TDERSWVYSPLHYS(averaged) H12Y (TDERSWVYSPLYYS) |  | 0.01354
TDERSWVYSPLHYSAQ A15D (TDERSWVYSPLHYSDQ) | 0.07874 | 
TDERSWVYSPLHYSAQ Y8T (TDERSWVTSPLHYSAQ) | 0.1176 | 
TDERSWVYSPLHYSAQ Y13H (TDERSWVYSPLHHSAQ) | 0.008357 | 
FPTDERSWVYSPLHYS P2E (FETDERSWVYSPLHYS) | 0.04643 | 
TDERSWVYSPLHYS(averaged) E3E |  | 0.1077
TDERSWVYSPLHYSAQ S14G (TDERSWVYSPLHYGAQ) | 0.01063 | 
TDERSWVYSPLHYS(averaged) Y13R (TDERSWVYSPLHRS) |  | 0.004782
TDERSWVYSPLHYS(averaged) L11F (TDERSWVYSPFHYS) |  | 0.03876
TDERSWVYSPLHYS(averaged) S14V (TDERSWVYSPLHYV) |  | 0.1749
FPTDERSWVYSPLHYS S16V (FPTDERSWVYSPLHYV) | 0.1122 | 
FPTDERSWVYSPLHYS E5L (FPTDLRSWVYSPLHYS) | 0.2094 | 
